Test results: US10077273B2, “SHMT inhibitors” (The Trustees of Princeton University, priority 2016, dated 2018)
Like-named read-outs stand apart in the source and are kept apart here.

Protein sequences, listed by entry. Tags and fused reporters are not part of them. Residues count along the entry.
UniProt P34897, 30-504 limits assumed: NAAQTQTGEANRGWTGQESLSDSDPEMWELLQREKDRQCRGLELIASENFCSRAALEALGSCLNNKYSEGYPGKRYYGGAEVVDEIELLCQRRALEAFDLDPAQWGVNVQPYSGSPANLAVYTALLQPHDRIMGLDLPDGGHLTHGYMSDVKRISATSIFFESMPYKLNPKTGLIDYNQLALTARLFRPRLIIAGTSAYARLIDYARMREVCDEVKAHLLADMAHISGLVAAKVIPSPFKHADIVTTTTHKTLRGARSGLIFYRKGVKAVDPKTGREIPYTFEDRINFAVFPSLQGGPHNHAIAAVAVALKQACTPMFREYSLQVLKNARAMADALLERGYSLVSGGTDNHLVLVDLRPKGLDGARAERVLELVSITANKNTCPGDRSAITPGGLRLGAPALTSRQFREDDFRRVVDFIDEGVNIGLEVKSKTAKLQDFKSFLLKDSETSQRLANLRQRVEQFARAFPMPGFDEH
UniProt P34896, 2-483 limits assumed: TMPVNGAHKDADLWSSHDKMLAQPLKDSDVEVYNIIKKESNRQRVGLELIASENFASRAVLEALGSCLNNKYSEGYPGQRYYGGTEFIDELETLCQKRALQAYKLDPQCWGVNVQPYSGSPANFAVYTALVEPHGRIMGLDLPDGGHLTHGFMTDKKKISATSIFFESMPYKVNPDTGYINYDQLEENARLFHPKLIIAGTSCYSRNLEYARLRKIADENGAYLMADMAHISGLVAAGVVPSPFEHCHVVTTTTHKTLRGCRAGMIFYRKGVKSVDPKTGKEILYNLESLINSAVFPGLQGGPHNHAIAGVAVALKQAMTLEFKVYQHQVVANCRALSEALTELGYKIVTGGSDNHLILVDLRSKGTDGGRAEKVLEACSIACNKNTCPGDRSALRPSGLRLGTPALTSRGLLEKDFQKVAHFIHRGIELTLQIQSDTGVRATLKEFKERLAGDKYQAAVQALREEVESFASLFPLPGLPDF

Legend:
[1] = biological target: human SHMT2 (Homo sapiens, UniProt P34897)
[2] = biological target: human SHMT1 (Homo sapiens, UniProt P34896); conditions: read-out: SHMT1 IC50

| SMILES | IC50 ([1]; read-out: SCHMT2 IC50) [nM] | IC50 [2] [nM] | further results |
| --- | --- | --- | --- |
| Cc1n[nH]c2c1C(c1cc(C#CCCCO)cc(C(F)(F)F)c1)(C(C)C)C(C#N)=C(N)O2 (stereo not drawn) [1 (enantiomeric ally active peak)] | 0.79 |  |  |
| Cc1n[nH]c2c1C(c1cc(C#CCCCO)cc(C(F)(F)F)c1)(C(C)C)C(C#N)=C(N)O2 (stereo not drawn) [Compound 1] | 0.65 |  |  |
| Cc1n[nH]c2c1C(c1cc(C#CCCCN)cc(C(F)(F)F)c1)(C(C)C)C(C#N)=C(N)O2 (stereo not drawn) [Compound 8] | 43 | 8 |  |
| Cc1n[nH]c2c1C(c1cc(C#CCCC(N)=O)cc(C(F)(F)F)c1)(C(C)C)C(C#N)=C(N)O2 (stereo not drawn) [Compound 11] | 1.4 | 0.4 |  |
| Cc1n[nH]c2c1C(c1cc(C#CCCCO)cc(C(F)(F)F)c1)(C(C)C)C(C#N)=C(N)O2 (stereo not drawn) [Compound 61, 6-amino-4-(3-(5-hydroxypent-1-yn-1-yl)-5-(trifluoromethyl)phenyl)-4-isopropyl-3-methyl-1,4-dihydropyrano[2,3-c]pyrazole-5-carbonitrile] |  |  | IC50 ([1]; read-out: SHMT2 IC50): 0.78 nM |
| Cc1n[nH]c2c1C(c1cc(C#N)cc(C#CCCC(=O)O)c1)(C(C)C)C(C#N)=C(N)O2 (stereo not drawn) [Compound 68] | 0.4 | 1.7 |  |
| Cc1n[nH]c2c1C(c1cc(C#CCCC(=O)N[C@@H](CCC(=O)O)C(=O)O)cc(C(F)(F)F)c1)(C(C)C)C(C#N)=C(N)O2 (stereo partly drawn) [Compound 69] | 0.8 |  |  |
| Cc1n[nH]c2c1C(c1cc(C#CCCC(=O)N[C@H](CCC(=O)O)C(=O)O)cc(C(F)(F)F)c1)(C(C)C)C(C#N)=C(N)O2 (stereo partly drawn) [Compound 70] | 1 |  |  |
| Cc1n[nH]c2c1C(c1cc(C#CCCC(=O)NC(C)(C)C(=O)O)cc(C(F)(F)F)c1)(C(C)C)C(C#N)=C(N)O2 (stereo not drawn) [Compound 72] | 2 | 4 |  |
| COC(=O)CCC#Cc1cc(C(F)(F)F)cc(C2(C(C)C)C(C#N)=C(N)Oc3[nH]nc(C)c32)c1 (stereo not drawn) [Compound 73] | 7.5 |  |  |
| Cc1n[nH]c2c1C(c1cc(C#CCCCO)cc(CO)c1)(C(C)C)C(C#N)=C(N)O2 (stereo not drawn) [Compound 74] | 19 | 17 |  |
| Cc1n[nH]c2c1C(c1cc(Br)cc(C(F)(F)F)c1)(C(C)C)C(C#N)=C(N)O2 (stereo not drawn) [Compound a, 6-amino-4-(3-bromo-5-(trifluoromethyl)phenyl)-4-isopropyl-3-methyl-1,4-dihydropyrano[2,3-c]pyrazole-5-carbonitrile] |  |  | IC50 ([1]; read-out: SHMT2 IC50): 42 nM |
| Cc1n[nH]c2c1[C@@](c1cccc(C(F)(F)F)c1)(C1CCC1)C(C#N)=C(N)O2 [HK-1] |  |  | IC50 ([1]; read-out: SHMT2 IC50, Table 3): > 5000 nM |
